# Results reported in patent publication US11458138B2 (Novartis AG, priority 2017, dated 2022).
# System: human corneal endothelial cells (CECs)
# Experiment: Human corneal endothelial cell population expansion: endothelial cell density in vitro
# Format: cell-based
# Conditions: 10 micromolar compound, X-VIVO15 medium, 10 days
# Procedure: Cells were cultured at 37° C. in 5% CO2.
# For each compound, two sets of cultures were generated. A first set of cultures was fixed in 4% PFA for 20 minutes at room temperature after cells isolated from the cornea had attached to the cell culture dish (typically 24 h after cell plating). A second set of cultures was fixed in 4% PFA for 20 minutes at room temperature 10 days after the first one.
# To measure cell density in all fixed cultures, the number of nuclei stained with Sytox Orange (ThermoFisher) were counted per surface area as follows: fixed cell cultures fixed were permeabilized in a solution of 0.3% Triton X-100 (Sigma-Aldrich). Cells were then labeled in a solution of 0.5 micromolar of Sytox Orange in PBS for 5 minutes at room temperature. Nuclei were counted under a Zeiss epifluorescence microscope. The expansion factor was then determined by calculating the ratio of the expanded population of cells to population of seeded cells.
smiles,measurement,value
"CC(C)(COCCO)Nc1nc(-c2ccncc2)nc2cnccc12 [Example 11, 2-(2-methyl-2-{[2-(pyridin-4-yl)pyrido[3,4-d]pyrimidin-4-yl]amino}propoxy)ethan-1-ol]",Endothelial Cell density in vitro,1121 cells/mm^2
"CC(C)(O)COCC(C)(C)Nc1nc(-c2ccncc2)nc2cnccc12 [Example 12, 2-methyl-1-(2-methyl-2-{[2-(pyridin-4-yl)pyrido[3,4-d]pyrimidin-4-yl]amino}propoxy)propan-2-ol]",Endothelial Cell density in vitro,4226 cells/mm^2
